The values that follow are results of earlier work, collected in patent US7351686B2 (priority 2001, dated 2008).

The test system of this data set is ALS patients. The conditions noted are these: human, in vivo, cited from earlier work.

Each structure is given as a SMILES string.

Consider `Nc1nc2ccc(OC(F)(F)F)cc2s1` [Riluzole, 2-amino-6-(trifluoromethoxy)benzothiazole], for which the “muscular strength or neurologic function in ALS patients” value is “does not improve”. Also, for the setting “po”, the “elongation of life span of ALS patients” value was “about 3 months”.
